Data taken from publication PMC6925601 (European journal of medicinal chemistry, 2019).

Tests used:
Cdc25B = target: T1, Cdc25B (Homo sapiens, UniProt P30305); experiment: CycLex Cdc25B fluorometric phosphatase inhibition assay; type: biochemical
T1 sequence (P30305 1-580): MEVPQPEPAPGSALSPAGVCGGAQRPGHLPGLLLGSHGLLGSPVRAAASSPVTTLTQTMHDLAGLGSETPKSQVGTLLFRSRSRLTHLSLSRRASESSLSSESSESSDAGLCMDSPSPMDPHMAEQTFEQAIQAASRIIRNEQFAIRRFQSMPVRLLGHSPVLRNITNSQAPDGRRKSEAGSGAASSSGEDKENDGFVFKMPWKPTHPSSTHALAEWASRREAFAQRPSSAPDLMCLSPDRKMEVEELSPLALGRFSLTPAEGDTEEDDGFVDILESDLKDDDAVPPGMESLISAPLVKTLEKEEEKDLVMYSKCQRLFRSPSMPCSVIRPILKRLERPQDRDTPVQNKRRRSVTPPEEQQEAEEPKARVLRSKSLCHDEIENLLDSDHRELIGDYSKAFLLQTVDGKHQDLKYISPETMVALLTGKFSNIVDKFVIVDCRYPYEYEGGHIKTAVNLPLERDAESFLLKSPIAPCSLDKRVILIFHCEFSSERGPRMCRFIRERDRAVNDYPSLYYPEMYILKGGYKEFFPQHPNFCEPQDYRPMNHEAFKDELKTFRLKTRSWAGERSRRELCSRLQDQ

[1] = tested on: nine tumor cell lines and primary PBMCs; experiment: Cytotoxicity across the panel of nine tumor cell lines and PBMCs; type: cell-based; settings: Homo sapiens, PBMC, 24 h, read-out: cytotoxic activity IC50 for most of the cell lines

`CC(C)=CC[C@@H](O)C1=CC(=O)c2c(O)ccc(O)c2C1=O` [Compound 1, Shikonin, reference compound] was tested, and the IC50 (Cdc25B) was under 5 µM and the IC50 [1] was under 10 µM.
